# Screens deposited in PubChem BioAssay by Broad Institute.
# Hits are enriched below; roughly 1.7% of the tested compounds scored in any of these assays.
# dFosB act-1 = activators of delta FosB homodimer, primary screen, biochemical, fluorescence polarization, TAMRA-CDK5 oligo, single point; Protein FosB (Mus musculus), P13346; purified delta FosB; percent of positive-control signal above neutral wells; activation, % at 25 µM; actives 0.99% (n = 340,000);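 active = mean activation above about 17%, with every replicate also reaching it, limit read from the data, passing the limit was not always enough; inconclusive = only one of the two conditions met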
# Yeast UUG start = modulators of start codon recognition fidelity in yeast; S. cerevisiae UUG-firefly luciferase reporter, luminescence/redox ratio; AID 602363; 350,000 tested, 0.13% active; activity score, % at 18.7 µM;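 active = replicate mean at a twofold rise or more, about +100% in these data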;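 also: firefly luciferase made from a UUG start codon reports start codon fidelity; reporter light over untreated wells divided by growth signal over untreated wells; some hits fall short of that in this replicate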
# CAL PDZ FP-1 = CAL PDZ peptide-binding inhibitors, primary screen, biochemical, fluorescence polarization, Cer-tagged CAL PDZ, HTS. purified CAL PDZ, TMR-peptide fluorescence polarization, 1 h. actives 0.02% (n = 330,000). inhibition, % at 20 µM. Golgi-associated PDZ and coiled-coil motif-containing protein (Homo sapiens), Q9HD26;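 active = highest replicate inhibition of at least 40%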;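 also: plate controls were DMSO neutral control wells for no effect and unlabeled competitor peptide control wells for full effect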
#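 Read-out basis: mP drop reported as inhibition | Assay system: Tagged CAL PDZ protein CerCALP, purified | Benchmarks: Unlabelled peptide for full inhibition, DMSO wells as neutral | Schedule: 1 h incubation at room temperature before polarization reading | Buffer or medium: Sodium phosphate/NaCl buffer pH 7.4 with TCEP, IgG, Thesit | Doses: Single point, 20 µM | Measured by: Fluorescence polarization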
# CDK5 p35 inh = inhibitors of human CDK5/p35 kinase, primary screen, biochemical, single concentration. Cyclin-dependent kinase 5 (Homo sapiens) + Cyclin-dependent kinase 5 activator 1 (Homo …. Recombinant CDK5/p35, ADP-Glo luminescence, 60 min. inhibition, % at 10 µM. actives 0.01% (n = 330,000);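 active = highest replicate inhibition of at least 50% and at least 75% of replicates reaching 50%; inconclusive = only one of the two criteria met; inactive = both criteria failed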;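 also: plate controls were DMSO neutral control for no effect and GW8510 at 10 µM for full effect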
# CAL PDZ FP-2 = untagged CAL PDZ binding inhibitors, primary screen, biochemical, fluorescence polarization, HTS. purified CAL PDZ, TMR-peptide fluorescence polarization, 1 h. actives 0.92% (n = 300,000). inhibition, % at 24.9 µM. AID 602252, 2012;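 active = mean inhibition of at least 30% with at least half of replicates also reaching 30%; inconclusive = no clear call, values can overlap the other calls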;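 also: 0% = DMSO neutral control and 100% = excess unlabeled competitor peptide PRC23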
# Dyrk1A ADPGlo = rat Dyrk1A kinase inhibitors, primary screen, biochemical, single point, plate reader. ADP-Glo luminescence, NFATc1 peptide. inhibition, % at 12.5 µM. actives 0.43% (n = 310,000). AID 504441, 2011; in the data active = inhibition above about 50%;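 also: plate controls were vehicle with enzyme for no effect and no enzyme for full effect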
# dFosB act-2 = activators of mouse delta FosB DNA binding, confirmation, biochemical, fluorescence polarization, TAMRA-CDK5 oligo, cherry-picked samples. shares compounds with dFosB act-1. purified delta FosB; normalised: neutral wells 0, positive control 100. activation, % at 24.9 µM. 2,400 tested, under 10 active;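 active = highest replicate activation at or above 34% and every replicate reaching that threshold; inconclusive = meets only one of the two criteria; inactive = meets neither criterion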;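 also: higher polarization means more probe DNA bound by delta FosB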
# The depositor's hits bear a star; ? = inconclusive; nt = no result given.
# Letters: A = dFosB act-1; B = Yeast UUG start; C = CAL PDZ FP-1; D = CDK5 p35 inh; E = CAL PDZ FP-2; F = Dyrk1A ADPGlo; G = dFosB act-2
1. O=C(CSc1nnc(NC(=O)c2ccco2)s1)Nc1ccccc1F
  A: -1 | B: -2 | C: -1 | D: 0 | E: -4 | F: 4 | G: nt
2. COc1ccc(C)c2sc(NC(=O)c3cccc(N4C(=O)CCC4=O)c3)nc12
  A: 53* | B: -21 | C: 0 | D: 1 | E: nt | F: 7 | G: 7
3. Cc1ccc(C)c2sc(NC(=O)c3ccc(N4C(=O)CCC4=O)cc3)nc12
  A: -7 | B: -8 | C: 0 | D: 2 | E: nt | F: 3 | G: nt
4. Cc1ccc(C)c(NC(=O)Cn2nc(-c3ccccc3)nc2-c2ccccc2)c1
  A: 55* | B: nt | C: -3 | D: -2 | E: 1 | F: 2 | G: -9
5. O=C(Nc1nc(-c2ccc(Cl)s2)cs1)c1ccco1
  A: -5 | B: nt | C: -4 | D: -3 | E: 4 | F: -5 | G: nt
6. O=C(Nc1nc(-c2nc3ccccc3s2)cs1)c1ccco1
  A: 78* | B: -5 | C: 0 | D: -1 | E: -11 | F: -1 | G: 3
7. O=C(Nc1nc(-c2ccc(F)cc2)cs1)c1cccnc1
  A: 34* | B: -12 | C: -2 | D: 2 | E: nt | F: -1 | G: 1
8. O=C(Nc1ccc2nn(-c3ccc(F)cc3)nc2c1)c1cccnc1
  A: 30* | B: nt | C: -3 | D: -1 | E: -4 | F: -9 | G: 2
9. O=C(Nc1nc(-c2ccc(Cl)cc2)cs1)c1cccnc1
  A: ? | B: -12 | C: 1 | D: 0 | E: -4 | F: 2 | G: nt
10. Cc1ccccc1S(=O)(=O)N1[C@H](C#N)[C@@H](c2ccccc2)[C@@H]1CO
  A: nt | B: -3 | C: nt | D: nt | E: nt | F: nt | G: nt
11. C[C@@H]1CN([C@H](C)CO)C(=O)c2cc(-c3ccccc3F)cnc2O[C@H]1CN(C)Cc1cccc(F)c1
  A: nt | B: -4 | C: nt | D: nt | E: nt | F: nt | G: nt
12. Cc1ccc(S(=O)(=O)NNC(=O)c2c(O)c3ccccc3[nH]c2=O)cc1
  A: 21* | B: -10 | C: -2 | D: 1 | E: -1 | F: 14 | G: 1
13. O=C(NNC(=O)c1c(O)c2ccccc2[nH]c1=O)c1ccccc1
  A: 83* | B: -19 | C: 0 | D: 0 | E: -4 | F: nt | G: 0
14. CC(C)NC(=O)c1c(O)c2ccccc2[nH]c1=O
  A: -1 | B: 3 | C: -1 | D: -10 | E: nt | F: -1 | G: nt
15. CC(C)C(=O)NNC(=O)c1c(O)c2ccccc2[nH]c1=O
  A: -11 | B: -5 | C: 1 | D: -1 | E: 4 | F: -2 | G: nt
16. COC(=O)Nc1ccc(S(=O)(=O)NNC(=O)c2c(O)c3ccccc3[nH]c2=O)cc1
  A: 24* | B: -11 | C: -1 | D: 0 | E: -3 | F: 11 | G: -1
17. Cc1noc(C)c1S(=O)(=O)Nc1ccc2c(c1)CC(=O)N([C@H](C)CO)C[C@@H](C)[C@@H](CN(C)S(=O)(=O)c1ccc(Cl)cc1)O2
  A: nt | B: 12 | C: nt | D: nt | E: nt | F: nt | G: nt
18. COc1ccccc1S(=O)(=O)N[C@@H]1CC[C@@H](CCNC(=O)C2CC2)O[C@@H]1CO
  A: nt | B: -5 | C: nt | D: nt | E: nt | F: nt | G: nt
19. CCCC(=O)Nc1ccc2c(c1)C(=O)N(C)[C@@H]1CC[C@@H](CC(=O)NCCc3ccccc3)O[C@H]1CO2
  A: nt | B: -13 | C: nt | D: nt | E: nt | F: nt | G: nt
20. Cc1cc2ccccc2n2c(SCC(=O)Nc3ccc(S(=O)(=O)N4CCCCC4)cc3)nnc12
  A: -10 | B: nt | C: -2 | D: 1 | E: -2 | F: 0 | G: nt
21. Cc1cc2cc(C)c3nnc(SCC(=O)Nc4ccc(S(=O)(=O)N5CCCCC5)cc4)n3c2cc1C
  A: 22* | B: nt | C: -3 | D: 0 | E: -3 | F: -2 | G: 2
22. CN(CC(=O)Nc1ccccc1C(F)(F)F)C(=O)CCc1nc2sc3c(c2c(=O)[nH]1)CCCC3
  A: 23* | B: -21 | C: -2 | D: -1 | E: -2 | F: -4 | G: 2
23. CN(CC(=O)Nc1ccc(Cl)cc1)C(=O)CCc1nc2sc3c(c2c(=O)[nH]1)CCCC3
  A: 29* | B: -21 | C: 1 | D: -1 | E: 2 | F: 1 | G: 1
24. CN(CC(=O)Nc1ccc(F)cc1)C(=O)CCc1nc2sc3c(c2c(=O)[nH]1)CCCC3
  A: 11 | B: -3 | C: 0 | D: -3 | E: 5 | F: 6 | G: nt
25. CCN(CC(=O)Nc1ccccc1C(F)(F)F)C(=O)CCc1nc2sc3c(c2c(=O)[nH]1)CCCC3
  A: 2 | B: -40 | C: -2 | D: -4 | E: -1 | F: -3 | G: nt

# Arranged by the number under CAL PDZ FP-2 (highest first): three from the list above
cpd | Molecule | CAL PDZ FP-2
24 | CN(CC(=O)Nc1ccc(F)cc1)C(=O)CCc1nc2sc3c(c2c(=O)[nH]1)CCCC3 | 5
25 | CCN(CC(=O)Nc1ccccc1C(F)(F)F)C(=O)CCc1nc2sc3c(c2c(=O)[nH]1)CCCC3 | -1
20 | Cc1cc2ccccc2n2c(SCC(=O)Nc3ccc(S(=O)(=O)N4CCCCC4)cc3)nnc12 | -2
